The results in this text go back to ChEMBL document CHEMBL1201862, “PubChem BioAssay data set” (2004).

Sequences of proteins named here, by UniProt entry; tags and fusion partners are left off.
UniProt P35372, whole entry: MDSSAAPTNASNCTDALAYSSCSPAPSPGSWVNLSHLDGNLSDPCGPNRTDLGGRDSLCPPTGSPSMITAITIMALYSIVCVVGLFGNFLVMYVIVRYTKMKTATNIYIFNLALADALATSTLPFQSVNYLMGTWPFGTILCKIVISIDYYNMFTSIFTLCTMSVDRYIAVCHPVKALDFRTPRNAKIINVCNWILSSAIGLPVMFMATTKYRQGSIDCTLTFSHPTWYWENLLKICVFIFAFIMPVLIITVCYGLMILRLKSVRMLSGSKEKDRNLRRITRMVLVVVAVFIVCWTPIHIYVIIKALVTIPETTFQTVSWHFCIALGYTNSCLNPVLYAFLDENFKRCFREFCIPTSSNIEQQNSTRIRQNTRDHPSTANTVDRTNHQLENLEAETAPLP

Molecules are shown by their SMILES. Active and inactive are the calls of the source.

In one assay the target is Mu-type opioid receptor (Homo sapiens, UniProt P35372). In kind it is functional, cell-based.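 Note: U2OS cells with beta-arrestin recruitment to OPRM1 by beta-gal complementation.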
The target of assay [1] is T1, Phospholipase D1 (Homo sapiens, UniProt Q13393).
T1 sequence (Q13393 whole entry): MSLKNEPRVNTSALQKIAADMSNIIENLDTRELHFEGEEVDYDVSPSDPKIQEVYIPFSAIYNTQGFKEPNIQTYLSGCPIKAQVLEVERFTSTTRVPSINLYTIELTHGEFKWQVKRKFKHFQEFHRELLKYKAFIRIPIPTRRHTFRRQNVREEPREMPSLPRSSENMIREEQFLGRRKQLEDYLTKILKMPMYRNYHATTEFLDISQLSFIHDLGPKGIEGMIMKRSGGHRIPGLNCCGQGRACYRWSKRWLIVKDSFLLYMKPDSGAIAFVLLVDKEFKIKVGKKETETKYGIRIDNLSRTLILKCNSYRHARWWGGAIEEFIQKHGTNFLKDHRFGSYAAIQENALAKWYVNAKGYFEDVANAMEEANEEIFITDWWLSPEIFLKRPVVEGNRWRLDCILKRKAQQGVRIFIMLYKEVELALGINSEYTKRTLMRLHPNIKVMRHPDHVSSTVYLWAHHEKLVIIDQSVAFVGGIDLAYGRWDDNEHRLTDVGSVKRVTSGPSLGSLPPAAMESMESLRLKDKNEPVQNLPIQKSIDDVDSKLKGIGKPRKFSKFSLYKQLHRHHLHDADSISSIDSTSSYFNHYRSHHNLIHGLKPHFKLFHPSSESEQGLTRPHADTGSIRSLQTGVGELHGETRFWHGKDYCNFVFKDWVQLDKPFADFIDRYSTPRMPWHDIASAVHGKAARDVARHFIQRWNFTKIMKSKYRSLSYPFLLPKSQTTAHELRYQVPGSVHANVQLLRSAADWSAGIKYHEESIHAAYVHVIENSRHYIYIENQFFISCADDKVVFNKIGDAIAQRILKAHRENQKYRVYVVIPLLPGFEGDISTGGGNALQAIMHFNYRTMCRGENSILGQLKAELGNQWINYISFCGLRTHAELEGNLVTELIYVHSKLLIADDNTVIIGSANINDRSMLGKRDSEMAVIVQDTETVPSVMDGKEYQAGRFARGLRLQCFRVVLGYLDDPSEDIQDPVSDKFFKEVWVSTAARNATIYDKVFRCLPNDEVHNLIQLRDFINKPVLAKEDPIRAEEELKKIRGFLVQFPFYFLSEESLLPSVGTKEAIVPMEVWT
As to the kind of experiment: PLD1 purified enzyme concentration response. [Related pubchem assays (depositor defined):AID588854]. The class given is functional.

Assay [2] deals with T1, Phospholipase D1. As to the kind of experiment: PLD1 inhibitor potency in cells, dose response (AID 602151).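 Note: cellular PLD1 assay in Calu-1 cells stimulated with PMA.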 The class given is functional.

Consider `CN1C[C@H](C(=O)N[C@]2(C)O[C@@]3(O)[C@@H]4CCCN4C(=O)[C@H](Cc4ccccc4)N3C2=O)CC2c3cccc4[nH]cc(c34)C[C@H]21` (stereo partly drawn), for which the EC50 at Mu-type opioid receptor is inactive: 92400 nM. Consider `C[C@@H](CN1CCC2(CC1)C(=O)NCN2c1ccccc1)NC(=O)c1ccc2ccccc2c1`, for which the values for the IC50 at Phospholipase D1 [1] and on Phospholipase D1 [2] were active: 690 nM and active: 35 nM, respectively.

Usually EC50 stands for the concentration at which the effect is half-maximal. For orientation: IC50 means the point on the concentration scale where inhibition reaches its midpoint.
